The values below come from patent publication US11124550B2, “Proteinaceous molecules and methods of use” (priority 2015, dated 2021).

The subject of this assay is SCN1A (R1407X) CA1 GABAergic neurons. Put plainly: Brain-slice whole-cell recordings, Dravet syndrome GABAergic neurons. The class given is cell-based, mouse. Conditions: 10 nM. Here is the method: Mice (post-natal day 14-16) were anaesthetized using isoflurane and sacrificed by decapitation. Brain slices (300-μm thick) were cut using a vibratome in the sagittal plane. Slices were kept at room temperature until recording. The slices were transferred to a recording chamber constantly perfused at 34° C. with artificial cerebrospinal fluid (CSF) solution consisting of: 125 mM NaCl, 2.5 mM KCl, 25 mM NaHCO3, 1.25 mM NaH2PO4, 1 mM MgCl2, 2 mM CaCl2) and 10 mM glucose, aerated with 95% O2 and 5% CO2 (final pH of 7.4). Whole-cell patch-clamp recordings were made using a MultiClamp 700A amplifier and pClamp acquisition software (Molecular Devices) from neurons visually identified using infrared differential interference contrast imaging (BX51, Olympus). Electrodes were pulled using a Sutter P-2000 puller (Sutter Instruments) from borosilicate micropipettes (World Precision Instruments) with an initial resistance of ˜2-3 megaohms and filled with intracellular solution consisting of 125 mM KGlu, 4 mM KCl, 2 mM MgCl2, 10 mM HEPES, 10 mM EGTA, 4 mM ATP-Mg, 0.3 mM GTP-Na, and 8 mM Biocytin Hydrochloride adjusted to a final pH of 7.3 with KOH. D-Mannitol was used to adjust osmolarity to 300 mOsm. Bridge balance was applied to all recordings. Voltage recordings were filtered at 30 kHz and sampled at 100 kHz. A holding current was injected into neurons if required, setting their holding potential to approximately −75 mV. A current injection/action potential (AP) frequency relationship was established by injecting an 800 ms square pulse of progressively depolarising currents. An automated AP detection algorithm in Axograph was used to detect AP with visual confirmation. The integrated number of APs between injection current bins of the i-o relationships was calculated (Axograph X) in order to allow comparison between control and Hm1a. AP threshold voltage was defined as the voltage at which velocity reached 10 mV/ms. For the AP waveform analysis, amplitude was measured from threshold to peak, rise-time was determined as the time between 10% to 90% of the AP amplitude and AP width was measured at 50% of the peak amplitude. AP measured at ‘collapse’ were selected for each individual cell at the first current injection at which AP collapse was robust. APs at the same current injection were analyzed in the presence of Hm1a. Membrane input resistance was measured in current clamp mode by measuring the last 200 ms of the voltage trace generated by a current injection of −10 pA.
Whole-cell recordings were made from CAT GABAergic neurons obtained from SCN1A (R1407X) Dravet syndrome mice, identified by their position within the molecular layers, and an input current versus AP firing rate relationship established. AP firing collapse in GABAergic interneurons was a robust cellular phenotype (FIG. 5a, b). […] Hm1a had no impact on resting potential (Table 7) or input resistance (550±73 versus 460±60 MΩ, p=0.11, n=10) of the SCN1A (R1407X) GABAergic neurons.

Consider `CC(C)C[C@@H]1NC(=O)[C@H](Cc2ccc(O)cc2)NC(=O)[C@H](CCCNC(=N)N)NC(=O)[C@@H](NC(=O)[C@@H](N)CCC(=O)O)CSSC[C@@H]2NC(=O)[C@@H]3CSSC[C@@H](C(=O)N[C@@H](C)C(=O)N[C@@H](Cc4c[nH]c5ccccc45)C(=O)N[C@@H](CC(=O)O)C(=O)NCC(=O)N[C@H](C(=O)N[C@@H](Cc4ccccc4)C(=O)N[C@@H](CO)C(=O)O)[C@@H](C)O)NC(=O)[C@H](Cc4ccc(O)cc4)NC(=O)[C@H](CCCCN)NC(=O)[C@H](Cc4c[nH]c5ccccc45)NC(=O)[C@H](CC(=O)O)NC(=O)[C@H](CO)NC(=O)[C@H](CCCNC(=N)N)NC(=O)[C@H](CSSC[C@H](NC(=O)CNC(=O)CNC(=O)[C@H](Cc4ccccc4)NC1=O)C(=O)N[C@@H](CO)C(=O)N[C@@H](CO)C(=O)N[C@@H]([C@@H](C)O)C(=O)N[C@@H](CO)C(=O)N[C@@H](CC(=O)O)C(=O)N3)NC(=O)[C@H](CO)NC(=O)[C@H](CC(C)C)NC(=O)[C@H](Cc1c[nH]cn1)NC(=O)[C@H](CCCCN)NC2=O` [Hm1a], for which the “morphology of the first two APs around the point of collapse” value is on record as “no significant change”. The molecule further displayed an input resistance (550±73 versus 460±60, p=0.11, no impact) of 460±60 MΩ. The “Action potential Rise at rheobase” value (control 0.76 ± 0.06) was determined as 0.71 ± 0.04 ms. The “Action potential Width at rheobase” value (control 1.8 ± 0.2) was 1.9 ± 0.2 ms. For the same molecule, the “Action potential Amp at rheobase” value (control 70 ± 2, n = 10) is listed as 71 ±4 mV. In addition, the RMP (control 73 ± 2) amounted to 72 ± 2 mV. Also, the “Action potential Threshold at rheobase” value (control −44 ± 2) is reported as −36 ± 4 mV. The “AP firing at current injections that caused 'AP collapse'” value (current injections between 300 and 450 pA, p=0.02) is listed as “rescued AP firing”. Besides, the rheobase result (p=0.001) is on record as “small but significant right-shift”. The “maximal amplitude of 9th AP in a train at collapse” value (p=0.005, n=10) amounted to 27.1±0.1 mV. Also, the “rise-time of 9th AP” value (versus 1.7±0.2, p=0.05) was 1.3 ± 0.1 ms. Further, the “half-width of 9th AP” value (versus 4.3±0.4, p=0.07) worked out at 3.0 ± 0.4 ms.
